According to patent US11130780B2, “Inhibitors of growth factor activation enzymes” (Washington University, priority 2015, dated 2021):

Molecular target: T1, matriptase (Homo sapiens, UniProt Q9Y5Y6)
T1 construct: Charles Craik, UCSF (obtained from another laboratory)
T1 sequence (Q9Y5Y6 615-855 limits assumed): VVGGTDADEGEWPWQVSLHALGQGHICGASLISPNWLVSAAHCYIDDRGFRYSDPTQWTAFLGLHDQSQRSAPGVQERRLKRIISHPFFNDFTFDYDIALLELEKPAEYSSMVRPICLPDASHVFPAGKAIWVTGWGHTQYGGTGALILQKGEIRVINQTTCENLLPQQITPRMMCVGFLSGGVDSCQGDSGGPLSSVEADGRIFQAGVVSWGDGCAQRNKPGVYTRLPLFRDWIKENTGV
Test: Fluorescent kinetic enzyme inhibitor assay of matriptase
Format: biochemical
Details: Table 9.1; Fluorogenic Assay
Method: Inhibitors (11-pt serial dilutions, 0-20 μM final concentration in reaction) were serially diluted in DMSO (2% DMSO final concentration) and then mixed with either recombinant serine protease domain of HGFA [Z. Han, P. K. Harris, D. E. Jones, R. Chugani, T. Kim, M. Agarwal, W. Shen, S. A. Wildman, J. W. Janetka, Acs Med Chem Lett 2014, 5, 1219-1224], matriptase (Charles Craik, UCSF) or hepsin* (#4776-SE-010, R&D Systems, Minneapolis, Minn.) in black 384 well plates (Corning #3575. Corning, N.Y.). […] The final substrate concentrations for all assays were at the Km for the respective enzymes. Changes in fluorescence (excitation at 380 nm and emission at 460 nm) were measured at room temperature over time in a Biotek Synergy 2 plate reader (Winnoski, Vt.). Using GraphPad Prism version 6.04 software program, (GraphPad Software, San Diego, Calif., www.graphpad.com), a four parameter curve fit was used to determine the inhibitor IC50s from a plot of the mean reaction velocity versus the inhibitor concentration. The IC50 values represent the average of three separate experimental determinations.

Ki: 430 nM
SMILES: Cc1ccc(S(=O)(=O)N[C@@H](Cc2cccc(C(=N)N)c2)C(=O)N2CCN(C(=O)OCc3ccccc3)CC2)cc1 [Compound 25h, (S)-Benzyl 4-(3-(3-carbamimidoylphenyl)-2-(4-methylphenylsulfonamido)propanoyl)piperazine-1-carboxylate]
